Molecules are shown by their SMILES. Only a part is listed here, and it is no random draw. Calls of active or inactive are those of the source. No stated cut-off is given here; in the data, active means activation above about 30%; inactive means the rest.

Protein sequences, listed by entry. Tags and fused reporters are not part of them.
UniProt P21728, whole entry, looked up: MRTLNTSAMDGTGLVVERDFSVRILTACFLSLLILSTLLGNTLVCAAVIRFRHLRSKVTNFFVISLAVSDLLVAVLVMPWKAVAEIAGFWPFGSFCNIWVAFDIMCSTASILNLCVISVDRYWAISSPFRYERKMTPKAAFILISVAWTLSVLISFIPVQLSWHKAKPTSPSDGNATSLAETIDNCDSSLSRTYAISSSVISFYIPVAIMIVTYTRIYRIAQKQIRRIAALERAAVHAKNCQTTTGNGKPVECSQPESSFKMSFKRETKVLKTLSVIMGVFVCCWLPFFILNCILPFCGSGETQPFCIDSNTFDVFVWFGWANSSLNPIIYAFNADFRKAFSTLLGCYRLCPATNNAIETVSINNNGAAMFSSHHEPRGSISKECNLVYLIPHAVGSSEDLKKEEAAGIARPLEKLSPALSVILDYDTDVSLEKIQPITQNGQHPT

In the assay the target is D(1A) dopamine receptor (Homo sapiens) (UniProt P21728). The assay can be described thus: Allosteric Agonists of the Human D1 Dopamine Receptor: qHTS. Further: 0% is about no effect. The following applies: HEK293 T-REx D1 cells, calcium flux, agonist mode; at 2 µM; stronger effect = higher value. The text has this: NIH Chemical Genomics Center [NCGC] NIH Molecular Libraries Probe Centers Network [MLPCN] MLPCN Grant: NS064831-01 Assay Submitter (PI): David Sibley Dopamine receptors (DARs) are involved in the etiology and/or therapy of a number of neuropsychiatric and endocrine disorders. For instance, all receptor-based antiparkinsonian drugs work via stimulating the D1 DAR subtype whereas all FDA-approved antipsychotic agents are antagonists of this receptor. […] There are three different types of allosteric modulators that we are seeking, two of which will stimulate or augment receptor signaling, allosteric agonists and potentiators, while the third, allosteric antagonists, will attenuate receptor signaling. The present primary screening assay measures compound agonism by tracking calcium flux in a […], inducible Hek293 Trex D1 cell line.
Freshly passaged cells are plated in 1536 well black, clear bottom plates at a density of 4000 cells/well in 3 ul of complete media containing 1x tetracycline inducer. After an overnight incubation at […] in 5% CO2, cells are loaded with 2 ul of the no wash Calcium Assay Kit (ABD Bioquest) and incubated at room temperature for 30 to 90 minutes. Agonist read: A 10 cycle (1 second/cycle) baseline measurement is taken and then the FDSS online 1536 pintool delivers 23 nl of compound library (as well as dopamine controls) to the plate. The plate is measured for kinetically at 1 cycle/sec for 180 seconds and is considered to be the agonist portion of the assay (eg, compounds which activate a positive calcium response during this portion are flagged as potential agonists). Following the 180 second read, 1 ul of either an EC20 (positive modulation assay) or EC80 (negative modulation assay) is delivered by an onboard pipette head. Measurements are taken kinetically for an additional 180 seconds.
In general terms: qHTS replaces the single test concentration by a dilution series.
Consider `O=C(/C=C/c1ccccc1)OC1CN2CCC1CC2` (stereo not given), for which the activation is inactive: 6.6%.

Take `CN(C)C1(CNC(=O)c2ccc(S(C)(=O)=O)cc2)CCCCC1`: the activation is inactive: 1.77%. As to `Cc1ccc(C(=O)OC2CN3CCC2CC3)cc1` (stereo not given), the activation was inactive: 0.877%.

`CC1CCC(C(C)C)C(OP(=O)(Nc2ccccn2)c2ccccc2)C1` (stereo not given): the activation was inactive: 11.4%. As for `Cc1nn(-c2ccccc2)c2c1P(=O)(N1CCOCC1)N(C)C(c1ccccc1)=N2` (stereo not given), the activation is inactive: 2.77%.

Take `O=[As](O)(c1ccccc1Br)c1ccccc1Br`: the activation is inactive: 1.64%. Regarding `CN(C(=O)Cc1ccc(Cl)c(Cl)c1)[C@@H]1CCCC[C@H]1N1CCCC1`, the activation was inactive: 3.34%.

Turning to `CC(C)/C=N\N=C(\N)N[N+](=O)[O-]`, the activation was inactive: 2.24%. Next, `COc1ccccc1CNC(=O)COC(=O)C(O)(c1ccccc1)c1ccccc1`: inactive: 0.904%. `CC(C)(C)C(=O)NC(Sc1ncccn1)C(Cl)(Cl)Cl` (stereo not given): the activation is inactive: 5.7%.

Regarding `Clc1n[nH]nc1-c1nn[nH][15n]1`, the activation is inactive: 2.46%. `CCOP(=O)(Nc1ccc(C)cn1)OCC`: the activation was inactive: 2.68%. `CCOP(=O)(NC(=NC(C)c1ccccc1)NC(C)c1ccccc1)OCC` (stereo not given): the activation was inactive: 0.544%. As for `CCC1=CC2Cc3nc4ccc(Cl)cc4c(N)c3C(C1)C2` (stereo not given), the activation is inactive: 8.8%. Consider `O=P1(Nc2ccccn2)COc2ccccc2OC1`, for which the activation was inactive: 2.66%. To `CCOP(=O)(Nc1cccc2cccnc12)OCC` belongs inactive: 1.13%; to `CCC(C)N(CC(C)C)C(=S)SC(NC(C)=O)C(Cl)(Cl)Cl` (stereo not given), inactive: -0.341%; to `CCOC(=O)c1ccc(NC(=O)C(C)(CCl)SC)cc1` (stereo not given), inactive: 0.295%. Turning to `O=C(OC1CN2CCC1CC2)c1cccc([N+](=O)[O-])c1` (stereo not given), the activation was inactive: 0.268%. Consider `O=C(Nc1ccncc1[N+](=O)[O-])c1ccc([N+](=O)[O-])cc1[N+](=O)[O-]`, for which the activation is inactive: 2.71%.

With `O=C(COc1ccccc1)OC1CN2CCC1CC2` (stereo not given), the activation is inactive: 2.03%. To `COP1(=S)c2c(C)nn(CCC#N)c2N=C(c2ccc(F)cc2)N1C` (stereo not given) belongs inactive: 2.88%; to `O=[N+]([O-])c1ccc(Nc2ccc(Oc3ccc([N+](=O)[O-])cc3[N+](=O)[O-])cc2)c([N+](=O)[O-])c1`, inactive: 1.55%; to `Cc1cc(SC(NC=O)C(Cl)(Cl)Cl)ncn1` (stereo not given), inactive: -1.1%.

As to `O=P(Nc1ccccn1)(c1cccc2ccccc12)c1cccc2ccccc12`, the activation was inactive: 4.8%.

As to `CCOC(=O)Nc1cccc([As](=O)(O)O)c1`, the activation is inactive: 1.91%. On to `Cc1cc(SC(NC(=O)c2ccccc2)C(Cl)(Cl)Cl)nc(C(C)C)n1` (stereo not given), for which the activation is inactive: 1.64%. To `CCCCOc1ccc(C(=O)NCC2(N3CCCCC3)CCCCC2)cc1OC` belongs inactive: 1.16%; to `CCOC(=O)Nc1ccc([As](=O)(O)O)c(O)c1`, inactive: 3.04%.

Regarding `O=[N+]([O-])c1cc([N+](=O)[O-])c(-c2ccn[nH]2)s1`, the activation is inactive: -0.529%. In the case of `CCN(CC)C(=S)SC(NC=O)C(Cl)(Cl)Cl` (stereo not given), the activation was inactive: 2.08%. Take `CC(C)NC(=O)NP(=O)(Oc1ccccc1)Oc1ccccc1`: the activation is inactive: 1.62%. For the molecule `CC(C)c1ccc(OP(=O)(Nc2ccccn2)Oc2ccccc2F)cc1` (stereo not given), the activation is inactive: 2.45%. Take `ClCCSc1nnc(-c2cccnc2)o1`: the activation was inactive: 4.27%.

As to `Cc1ccc2nc3c(c(C)c2c1)CC(C(Cl)Cl)S3` (stereo not given), the activation is inactive: 1.4%.

For the molecule `Cc1ccc(OP(=O)(Nc2ccc([N+](=O)[O-])cn2)Oc2ccc(C)cc2)cc1`, the activation is inactive: 3.41%. As to `COc1cc(C(=O)NCC2(N3CCOCC3)CCCCC2)ccc1OCC(C)C`, the activation was inactive: -0.435%. Regarding `C[As](=O)(O)c1cccc(C(=O)O)c1`, the activation is inactive: 5.17%.

On to `O=[As](O)(c1ccc(O)cc1)c1ccccc1O`, for which the activation was inactive: 2.06%.

For `COc1ccc(N/C(=N/P(=O)(N2CCOCC2)N2CCOCC2)N2CCOCC2)cc1`, the activation was inactive: 2.71%.

For the molecule `COc1cc(I)ccc1[As](=O)(O)O`, the activation was inactive: 1.07%. Regarding `COc1ccc2nc(NP(=O)(c3ccccc3)c3ccccc3)sc2c1`, the activation is inactive: 2.12%. For the molecule `Cc1cc(=O)[nH]c(N[N+](=O)[O-])n1`, the activation was inactive: 3.97%.

`O=C(OC1CN2CCC1CC2)C12CC3CC(CC(C3)C1)C2` (stereo not given): the activation is inactive: 13.9%. As to `Cc1c2c(nc3ccccc13)SC(C(Cl)Cl)C2` (stereo not given), the activation was inactive: 0.923%.

These data come from PubChem BioAssay AID504660 (National Center for Advancing Translational Sciences (NCATS), 2011).
